{"source": "patent US12653874B2", "about": "“Nant cancer vaccine” (NantCell, Inc., priority 2016, dated 2026)", "origin": "cited, not measured here", "test_system": "metastatic melanoma", "data": [{"substance": "IL-2: immunotherapy currently approved for treatment of advanced melanoma", "values": [{"measurement": "overall ORR", "setting": "high-dose IL-2, metastatic melanoma", "result": 16, "unit": "%"}, {"measurement": "toxicities", "setting": "in vivo", "result": "high toxicities"}, {"measurement": "responders remaining progression free", "setting": "of the subjects who responded, median follow-up of 62 months", "result": 28, "unit": "%"}]}]}
